These results are taken from PubChem BioAssay AID588497 (NMMLSC, 2011).

In general, inhibition refers to the drop in the measured response relative to a control, in per cent.

The entries are a selection whose mix differs from that of the whole data set. Some results for these compounds are left out of this collection, so the calls shown say nothing about other tests. Records with an inconclusive call do not appear. Activity calls are given as the source filed them. Rule as the data show it: active = inhibition above about 35% (passing the limit was not always enough); inconclusive = no clear call, values can overlap the other calls.

In the assay the test system is Botulinum neurotoxin type F light chain protease (Clostridium botulinum). Put plainly: BoNT/F light chain protease inhibitors, primary screen, biochemical, flow cytometry, MLPCN library (AID 588497). Also: plate controls were buffer without enzyme for full effect and enzyme alone for no effect. The settings on record: Multiplex microsphere protease cleavage assay, at 10 µM, hits give high values. Background: A flow cytometer gives signals particle by particle.
On to `O=C(OC1CN2CCC1CC2)C(CO)(c1ccccc1)c1ccccc1` (centres undefined), for which the inhibition is inactive: 1.5%.

As to `CC(C)Oc1ccc(C(=O)NCC2(N(C)C)CCCCC2)cc1`, the inhibition was inactive: -13.3%.

Turning to `O=C(OCCN1CCCC1)C(O)(c1ccccc1)c1ccccc1`, the inhibition is inactive: 3.9%.

Consider `CN(C)c1cccc(C(=O)NCC2(N(C)C)CCCCC2)c1`, for which the inhibition is inactive: 0.7%.

For `C=C(C)C#CC(O)(C(=O)OC1CCN(C)CC1)c1ccccc1` (centres undefined), the inhibition is inactive: 3.9%.

`COc1ccc(Br)c(C(=O)NCC2(N3CCCCC3)CCCCC2)c1`: the inhibition is inactive: 8.5%.

As to `COc1cc(C(=O)NCC2(N(C)C)CCCCC2)c([N+](=O)[O-])cc1OC`, the inhibition was inactive: -19%.

Regarding `CN(C)C1(CNC(=O)c2ccc(Br)cc2)CCCCC1`, the inhibition was inactive: 25%.

In the case of `O=C(NCC1(N2CCCCC2)CCCCC1)c1cccc(Cl)c1`, the inhibition is inactive: 21.7%.

Turning to `COc1cccc(C(=O)NCC2(N3CCCCC3)CCCCC2)c1`, the inhibition is inactive: 0.9%.

Take `COc1ccc(Cl)cc1C(=O)NCC1(N(C)C)CCCCC1`: the inhibition is inactive: -15.2%.

Consider `Cc1ccccc1C(=O)NCC1(N2CCCCC2)CCCCC1`, for which the inhibition was inactive: -0.1%.

`CN(C)C1CCCC1OC(=O)C(O)(c1ccccc1)c1ccccc1` (centres undefined): the inhibition was inactive: -7.4%.

Take `COc1ccc(C(=O)NCC2(N(C)C)CCCCC2)cc1`: the inhibition was inactive: 8%.

On to `Cc1cc(C(=O)NCC2(N3CCCCC3)CCCCC2)ccc1[N+](=O)[O-]`, for which the inhibition is inactive: -17.5%.

As for `CCN1CCCC(OC(=O)C2(O)c3ccccc3C=Cc3ccccc32)C1` (centres undefined), the inhibition was inactive: -1.9%.

Consider `O=C(NCC1(N2CCCCC2)CCCCC1)c1cccc(Br)c1`, for which the inhibition was inactive: 2.6%.

In the case of `C=CCN1CCN(CCOC(=O)C(O)(c2ccccc2)c2ccccc2)CC1`, the inhibition was inactive: -0.5%.

`O=C(NCC1(N2CCCCC2)CCCCC1)c1cc(F)c(F)cc1Cl`: the inhibition was inactive: 0.3%.

For the compound `CN1[C@@H]2CC[C@H]1CC(OC(=O)C(O)(c1ccccc1)c1ccccc1)C2` (some centres undefined), the inhibition was active: 35%.

As to `O=C(NCC1(N2CCCCC2)CCCCC1)c1cc([N+](=O)[O-])ccc1Cl`, the inhibition was inactive: -6.8%.

Turning to `Cc1ccc(C(=O)NCC2(N3CCCCC3)CCCCC2)cc1`, the inhibition was inactive: 4%.

With `CCN(CC)CC(C)C(C)OC(=O)C(O)(c1ccccc1)c1ccccc1` (centres undefined), the inhibition is inactive: -1.8%.

For the compound `COc1cc(SC)ccc1C(=O)NCC1(N(C)C)CCCCC1`, the inhibition is inactive: 9.1%.
